Values of other authors, collected in patent publication US20080287669A1, “METHODS AND COMPOSITIONS FOR IDENTIFYING COMPOUNDS USEFUL IN NUCLEIC ACID PURIFICATION” (priority 2007, published 2008).
Where two headings read alike, the source gives them in different places.

SMILES	Dielectric Constant (DC) (Table 3, miscible organic solvents)	Dielectric Constant (DC) (Table 1, soluble organic solvents)
C1CN1	18.3	–
CCCCOP(=O)(OCCCC)OCCCC	–	8.34
